Biological target: T1, Rab5:wild type (WT), overexpressed in Tet-Off PC12 cells (Homo sapiens (Human), UniProt P20339 1-215, C-terminal cysteines are isoprenylated in cells; only the GTP-bound fraction binds GST-R5BD)
T1 construct: also called Rab5:WT; WT Rab5
T1 sequence: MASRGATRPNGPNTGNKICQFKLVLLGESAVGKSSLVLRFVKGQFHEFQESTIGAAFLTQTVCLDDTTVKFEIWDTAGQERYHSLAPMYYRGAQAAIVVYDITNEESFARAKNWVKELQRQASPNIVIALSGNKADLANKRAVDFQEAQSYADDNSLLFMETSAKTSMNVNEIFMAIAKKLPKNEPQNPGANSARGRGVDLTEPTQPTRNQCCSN
Test: GST-R5BD pull-down from PC12 cell lysate, anti-Rab5 immunoblot, densitometry

pull-down signal, fold lower than that of Rab5:Q79L: 7 fold
B1: GST-R5BD (fusion protein of glutathione S-transferase and the Rab5-binding domain, residues 739-862, of Rabaptin5) (other)
chain: MSPILGYWKIKGLVQPTRLLLEYLEEKYEEHLYERDEGDKWRNKKFELGLEFPNLPYYIDGDVKLTQSMAIIRYIADKHNMLGGCPKERAEISMLEGAVLDIRYGVSRIAYSKDFETLKVDFLSKLPEMLKMFEDRLCHKTYLNGDHVTHPDFMLYDALDVVLYMDPMCLDAFPKLVCFKKRIEAIPQIDKYLKSSKYIAWPLQGWQATFGGGDHPPKSDLIEGRGIPGNSASISSLKAELERIKVEKGQLESTLREKSQQLESLQEIKISLEEQLKKETAAKATVEQLMFEEKNKAQRLQTELDVSEQVQRDFVKLSQTLQVQLERIRQADSLERIRAILNDTKLTDINQLPET
notes: also called pGEX/Rabaptin-5(R5BD) product; Rabaptin-5 R5BD

Source: patent US7838249 (BOARD OF REGENTS OF THE UNIVERSITY OF OKLAHOMA, dated 2010)
